Experiment [1] concerns the target Factor XIa (Homo sapiens, UniProt P03951). The experiment is described as follows: Factor XIa inhibition assay utilizing a fluorophore-quencher pair peptide substrate (FLINT). The note with it: read-out: FXIa Inhibition IC50; 11-point, 3-fold serial dilution, top 100 nM; 30 min preincubation; 15 μM 5Fam-KLTRAETV-K5Tamra substrate; kinetic reads over 30 min. The source says: Biological Example 1: Factor XIa Inhibition Assay Utilizing a Fluorophore-Quencher Pair Peptide Substrate
A fluorescence intensity (FLINT) based assay was used to monitor inhibition of Factor XIa. The peptide substrate, 5Fam-KLTRAETV-K5Tamra (purchased from New England Peptide) was chosen based on the FXI sequence. Conversion of zymogen FXI to its activated form, FXIa, occurs by proteolytic cleavage by […] at two sites, Arg146 and Arg180. The custom peptide used in this assay was based on the Arg146 cleavage site of FXI. The peptide substrate was designed with a fluorophore-quencher pair, where the fluorescence is quenched until FXIa cleaves the 8-mer peptide after the Arg residue. The substrate KM was fit to a substrate inhibition model whereby kcat=0.86 s^−1, KM=12.4 μM, Ki=61.6 μM with an enzymatic efficiency, and kcat/KM=69523 M^−1s^−1.
The Factor XIa FLINT assay was used with the following 5Fam-KLTRAETV-K5Tamra assay buffer: 50 mM Tris, pH 7.5, 100 mM NaCl, 5 mM CaCl2, 0.1 mg/mL BSA, 0.03% CHAPS. Assay buffer was prepared by mixing all ingredients fresh. 5Fam-KLTRAETV-K5Tamra peptide substrate was first prepared at 10 mM in 100% DMSO, then diluted to 3 mM in 100% DMSO. Assay buffer was then added directly to the 3 mM stock of substrate to prepare the 30 μM 2× working concentration (15 μM final concentration). The 2× Factor XIa stock solution was prepared by diluting 6.562 μM stock in 1× assay buffer for a […].
Test compound(s) were run in an 11-point, 3-fold serial dilution with a final top compound concentration of 100 nM. Final DMSO in assay was 2%. FXIa was preincubated with compound for 30-minutes and then substrate was added to initiate the reaction. The assay was run with kinetic (KIN) reads at 5 min intervals over 30 minutes. […] More specifically, the assay was run as follows: • 100 nL of 0.01 mM test compound was dispensed into black 384-well non-binding Greiner BioOne 784900 plate for 0.1 μM final concentration, • 5 μL of 1× assay buffer was dispensed to column 24 (low control) and 5 μL 2× Factor XIa solution was dispensed to columns 1-23 (column 23 high control); • the plate was centrifuged with a “cover” plate at 500 rpm for 1 min • the plate was pre-incubated for 30 minutes at room temperature with plate covered; • 5 μL of 2×5Fam-KLTRAETV-K5Tamra peptide substrate was dispensed into the entire plate, columns 1-24; • the plate was centrifuged with a “cover” plate at 500 rpm for 1 min; • the plate was read monitoring fluorescence intensity on the BMG PHERAStar at room temperature, using fluorescence module 485 nm/520 nm.
(§1) Percent inhibition (IC50) curves were generated per compound tested, and data was analyzed using a 4-parameter logistic fit using GeneData Screener. The relative fluorescence unit (RFU) values were normalized to percent inhibition using the following equation: % inhibition=((HC−LC)−(compound−LC)/(HC−LC))*100
where LC—low control=mean signal of no Factor XIa or 100% inhibition of Factor XIa; HC—high control=mean signal of Factor XIa+5Fam-KLTRAETV-K5Tamra peptide substrate with DMSO only.
(§2) An 11-point dose response curve for the test compound(s) was generated using GENDATA to determine IC50 value based on the following equation: Y=Bottom+(Top−Bottom)/(1+10^((log IC50−X)*HillSlope))
where Y is the % inhibition in the presence of X inhibitor concentration, Top=high control=mean signal of Factor XIa+5Fam-KLTRAETV-K5Tamra peptide substrate with DMSO only; Bottom=low control—mean signal of no Factor XIa or 100% inhibition of Factor XIa; HillSlope—Hill coefficient; and IC50=concentration of compound with 50% inhibition in relation to top/high control.

By UniProt entry, the sequences of proteins in these tests, tags left out. Residues count along the entry.
UniProt P03951, 388-625 limits assumed: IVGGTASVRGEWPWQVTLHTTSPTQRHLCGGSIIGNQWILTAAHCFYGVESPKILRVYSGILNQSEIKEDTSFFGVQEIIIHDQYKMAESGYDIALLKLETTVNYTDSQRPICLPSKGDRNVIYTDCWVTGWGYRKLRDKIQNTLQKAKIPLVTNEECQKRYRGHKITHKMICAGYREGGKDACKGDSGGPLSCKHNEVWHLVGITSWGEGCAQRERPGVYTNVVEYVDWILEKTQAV
UniProt P03951, 19-387 partner limits assumed: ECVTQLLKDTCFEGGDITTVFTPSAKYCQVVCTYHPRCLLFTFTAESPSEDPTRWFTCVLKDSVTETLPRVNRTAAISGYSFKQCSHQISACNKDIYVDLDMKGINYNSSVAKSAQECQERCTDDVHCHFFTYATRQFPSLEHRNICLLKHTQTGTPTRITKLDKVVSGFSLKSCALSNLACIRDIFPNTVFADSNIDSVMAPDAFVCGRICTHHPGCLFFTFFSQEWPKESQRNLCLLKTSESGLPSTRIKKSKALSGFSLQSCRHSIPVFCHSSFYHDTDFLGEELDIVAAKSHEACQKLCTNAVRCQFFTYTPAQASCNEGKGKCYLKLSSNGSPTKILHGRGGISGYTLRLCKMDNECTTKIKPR
UniProt P03952, 391-638 limits assumed: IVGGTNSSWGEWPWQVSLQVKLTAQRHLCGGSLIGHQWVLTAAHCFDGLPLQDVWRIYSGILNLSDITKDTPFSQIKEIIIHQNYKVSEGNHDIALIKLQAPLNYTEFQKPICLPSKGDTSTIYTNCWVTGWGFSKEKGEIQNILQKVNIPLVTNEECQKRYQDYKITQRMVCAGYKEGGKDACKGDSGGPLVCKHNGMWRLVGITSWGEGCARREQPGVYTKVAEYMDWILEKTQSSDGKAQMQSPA
UniProt P03952, 20-390 partner limits assumed: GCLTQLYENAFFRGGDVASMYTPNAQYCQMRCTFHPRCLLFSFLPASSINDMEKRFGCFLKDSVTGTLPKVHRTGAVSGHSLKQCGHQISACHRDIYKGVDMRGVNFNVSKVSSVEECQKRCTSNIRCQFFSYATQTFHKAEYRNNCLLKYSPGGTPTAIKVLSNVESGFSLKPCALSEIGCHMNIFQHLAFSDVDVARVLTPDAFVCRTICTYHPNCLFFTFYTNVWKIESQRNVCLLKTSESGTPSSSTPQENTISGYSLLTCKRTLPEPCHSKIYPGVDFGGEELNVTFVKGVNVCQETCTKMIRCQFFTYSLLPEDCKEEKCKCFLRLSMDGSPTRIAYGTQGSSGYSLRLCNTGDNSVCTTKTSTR

The target of experiment [2] is human plasma kallikrein (Homo sapiens, UniProt P03952). The experiment is described as follows: Kallikrein inhibition assay utilizing a quenched AMC peptide substrate (FLINT). The method, then:
Biological Example 2: Kallikrein Inhibition Assay Utilizing a Quenched AMC Peptide Substrate
A fluorescence intensity (FLINT) based assay was used to monitor inhibition of human plasma kallikrein. The peptide substrate, Z-Gly-Pro-Arg-AMC (Purchased from Bachem; Catalog #I-1150) was chosen based on its relatively low KM for kallikrein which enables running the assay at lower substrate concentrations to control background fluorescence. The kinetic parameters for this substrate were determined by fitting titration data to the Michaelis-Menten equation yielding a KM=40 μM, kcat=0.76 s^−1, and kcat/KM=18932 M^−1s^−1.
The Kallikrein FLINT assay was used with the following Z-Gly-Pro-Arg-AMC assay buffer: 50 mM Tris, pH 7.5, 100 mM NaCl, 5 mM CaCl2, 0.1 mg/mL BSA, 0.03% CHAPS. Assay buffer was prepared by mixing all ingredients fresh. 2× Z-Gly-Pro-Arg-AMC peptide substrate was prepared by diluting 10 mM stock into 1× assay buffer for a 100 μM working concentration (50 μM final concentration). The 2× kallikrein stock solution was prepared by diluting 14.76 μM stock in 1× assay buffer for a 4 nM working stock solution (2 nM final concentration).
Test compound(s) were run in an 11-point, 3-fold serial dilution with a final top compound concentration of 1 μM. Final DMSO in assay was 2%. Plasma kallikrein was pre-incubated for 30-minute with compound and then 50 μM substrate was added to initiate the reaction. The assay was run with kinetic (KIN) reads at 5 min intervals over 30 minutes. The time course was linear using 2 nM kallikrein greater than 30 minutes. More specifically, the assay was run as follows: • 100 nL of 0.1 mM test compound was dispensed into black 384-well non-binding Greiner BioOne 784900 plate for 1 μM final concentration; • 5 μL of 1× assay buffer was dispensed to columns 24 (low control) and 5 μL 2× human kallikrein enzyme solution was dispensed to columns 1-23 (column 23 high control); • the plate was centrifuged with a “cover” plate at 500 rpm for 1 min • the plate was pre-incubated for 30 minutes at room temperature with plate covered; • 5 μL of 2× Z-Gly-Pro-Arg-AMC peptide substrate was dispensed into the entire plate, columns 1-24; • the plate was centrifuged with a “cover” plate at 500 rpm for 1 min; • the plate was read monitoring fluorescence intensity on the BMG PHERAStar at room temperature, using fluorescence module 340 nm/440 nm.
as §1
where LC—low control=mean signal of […] 100% inhibition of human kallikrein enzyme; HC—high control=mean signal of […]+Z-Gly-Pro-Arg-AMC peptide substrate with DMSO only.
as §2
where Y is the % inhibition in the presence of X inhibitor concentration, Top=high control=mean signal of human kallikrein enzyme+Z-Gly-Pro-Arg-AMC peptide substrate with DMSO only; Bottom=low control—mean signal of no human kallikrein enzyme or 100% inhibition of human kallikrein enzyme; HillSlope—Hill coefficient; and IC50=concentration of compound with 50% inhibition in relation to top/high control.

Where [3] appears, read: read-out: Plasma Kallikrein IC50, 11-point, 3-fold serial dilution, top 1 μM, 30 min preincubation, 2 nM kallikrein, 50 μM Z-Gly-Pro-Arg-AMC, kinetic reads over 30 min.

Where two headings read alike, the source gives them in different places.

As a reminder, the IC50 is the concentration that gives 50% inhibition. For the compound `O=C(O)c1cccc(NC(=O)[C@@H]2CC[C@@H]3CC(c4c(-n5cc(C(F)(F)F)nn5)ccc(Cl)c4F)=CC(=O)N32)c1F`, the IC50 in experiment [1] was over 0.05 µM; in experiment [2] (read-out: Plasma Kallikrein IC50 (μM), same assay as E2, unit μM printed in the cell under a head that says nM) it was over 1 µM.

For `O=C(NC1CC1)c1ccc(NC(=O)[C@@H]2CC[C@@H]3CC(c4c(-n5cnnn5)ccc(Cl)c4F)=CC(=O)N32)cc1`, the values for the IC50 in experiment [1] and in experiment [2] (setting [3]) were over 0.05 µM and 0.677 µM, respectively.

On to `NC(=NO)c1ccc(NC(=O)[C@@H]2CC[C@@H]3CC(c4c(-n5cnnn5)ccc(Cl)c4F)=CC(=O)N32)cc1`, for which the IC50 in experiment [1] was determined as 0.0261 µM; in experiment [2] (setting [3]), 0.606 µM.

Regarding `NC(=O)c1ccc(NC(=O)[C@@H]2CC[C@H]3CC(c4cc(Cl)ccc4-n4cc(C(F)(F)F)nn4)=CC(=O)N32)cc1F`, the IC50 is over 0.05 µM in experiment [1] and 0.946 µM in experiment [2] (setting [3]).

Take `O=C(Nc1ccc(-c2ncon2)cc1)[C@@H]1CC[C@@H]2CC(c3c(-n4cnnn4)ccc(Cl)c3F)=CC(=O)N21`: the IC50 in experiment [1] came to 0.0234 µM; in experiment [2] (setting [3]), 0.123 µM.

In the case of `NC(=O)c1ccc(NC(=O)[C@@H]2CC[C@H]3CC(c4c(-n5cc(C(F)(F)F)nn5)ccc(Cl)c4F)=CC(=O)N32)cc1F`, the IC50 in experiment [1] is over 0.05 µM; in experiment [2] (setting [3]) it was 0.626 µM.

For `O=C(Nc1ccc(-c2noc(C(F)F)n2)cc1)[C@@H]1CC[C@@H]2CC(c3c(-n4cnnn4)ccc(Cl)c3F)=CC(=O)N21`, the IC50 was over 0.05 µM in experiment [1] and 0.348 µM in experiment [2] (setting [3]).

These data come from patent US12286429B2, “5-oxo-1,2,3,5,8,8a-hexahydroindolizine-3-carboxamide derivatives useful as a factor XIa inhibitors” (Janssen Pharmaceutica NV, priority 2021, dated 2025).
